Laboratory results published in patent US12358918B2, “Aryl hydrocarbon receptor (AHR) activator compounds as cancer therapeutics” (THE BROAD INSTITUTE, INC., priority 2018, dated 2025).

Target: T1, recombinant human Adenosine A2B (FAST-003C) receptor (Homo sapiens, UniProt P29275)
T1 sequence (P29275 1-332): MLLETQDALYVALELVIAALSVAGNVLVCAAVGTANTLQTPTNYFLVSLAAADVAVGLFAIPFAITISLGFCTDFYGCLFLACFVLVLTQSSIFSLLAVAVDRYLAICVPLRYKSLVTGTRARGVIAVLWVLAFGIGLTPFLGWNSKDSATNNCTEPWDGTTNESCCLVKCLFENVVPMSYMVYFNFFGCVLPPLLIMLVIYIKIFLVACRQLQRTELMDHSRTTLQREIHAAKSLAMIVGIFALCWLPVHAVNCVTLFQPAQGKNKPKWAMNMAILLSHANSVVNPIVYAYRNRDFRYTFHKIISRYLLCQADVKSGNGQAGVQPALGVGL
Assay: cAMP HTRF assay, Adenosine A2B receptor, antagonist mode

Nc1nc2ccc(Cl)cc2c2nc(-c3ccco3)nn12 [CGS-15943, reference compound]
IC50: 21.9 nM
